Assay results as given in US20260034119A1, “5-METHOXY-N,N-[…][…], THEIR […], AND METHODS FOR TREATMENT OF NEUROLOGICAL, […], AND SUBSTANCE USE DISORDERS” (priority 2023, published 2026).

Chains of the proteins cited; added tags and fusions are not shown.
UniProt P08908, whole entry: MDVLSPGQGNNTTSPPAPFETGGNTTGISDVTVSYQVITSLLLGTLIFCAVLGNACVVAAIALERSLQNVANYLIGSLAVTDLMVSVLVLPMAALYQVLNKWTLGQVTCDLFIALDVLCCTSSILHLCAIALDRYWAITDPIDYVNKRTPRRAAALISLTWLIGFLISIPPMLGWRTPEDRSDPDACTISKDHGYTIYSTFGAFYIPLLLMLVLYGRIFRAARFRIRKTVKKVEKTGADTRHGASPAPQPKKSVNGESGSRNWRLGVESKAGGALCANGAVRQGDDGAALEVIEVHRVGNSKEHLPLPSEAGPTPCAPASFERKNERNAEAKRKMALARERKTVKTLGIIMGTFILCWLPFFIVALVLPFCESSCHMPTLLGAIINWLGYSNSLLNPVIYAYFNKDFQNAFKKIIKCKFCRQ
UniProt P08908, whole entry N386V: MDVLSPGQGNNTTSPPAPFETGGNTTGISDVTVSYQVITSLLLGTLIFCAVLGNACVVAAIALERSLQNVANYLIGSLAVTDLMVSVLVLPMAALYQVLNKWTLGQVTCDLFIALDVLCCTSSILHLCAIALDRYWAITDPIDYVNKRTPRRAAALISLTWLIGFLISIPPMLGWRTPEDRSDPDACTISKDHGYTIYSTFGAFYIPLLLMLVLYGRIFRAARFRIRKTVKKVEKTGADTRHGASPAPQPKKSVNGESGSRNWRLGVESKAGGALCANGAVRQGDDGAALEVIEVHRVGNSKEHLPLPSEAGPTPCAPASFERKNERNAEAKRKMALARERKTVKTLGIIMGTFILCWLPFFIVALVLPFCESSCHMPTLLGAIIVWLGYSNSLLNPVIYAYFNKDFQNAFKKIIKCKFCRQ
UniProt P08908, whole entry A365N: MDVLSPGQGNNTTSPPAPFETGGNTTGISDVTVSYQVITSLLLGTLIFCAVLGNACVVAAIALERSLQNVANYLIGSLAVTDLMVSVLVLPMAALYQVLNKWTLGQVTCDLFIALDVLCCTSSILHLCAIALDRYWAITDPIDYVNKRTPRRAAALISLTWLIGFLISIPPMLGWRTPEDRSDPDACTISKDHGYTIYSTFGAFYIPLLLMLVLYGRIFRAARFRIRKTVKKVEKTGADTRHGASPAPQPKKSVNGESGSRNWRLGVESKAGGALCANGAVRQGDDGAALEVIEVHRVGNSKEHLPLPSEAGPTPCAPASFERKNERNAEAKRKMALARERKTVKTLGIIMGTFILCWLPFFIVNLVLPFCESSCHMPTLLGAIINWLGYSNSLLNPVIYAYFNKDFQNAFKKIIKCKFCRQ

What was measured:
[1] = target: T1, 5-HT1A (Homo sapiens, UniProt P08908); assay: cell-based
[2] = target: T1, 5-HT1A; assay: 5-HT1A-mediated cAMP reduction assay (GloSensor, HEK293-T); details: EC50 (nM), 5-HT1A WT
[3] = target: 5-HT1A N386V (Homo sapiens, UniProt P08908, N386V); assay: cell-based
[4] = target: 5-HT1A A365N (Homo sapiens, UniProt P08908, A365N); assay: cell-based; details: EC50 (nM), Gi1 BRET, 5-HT1A A365N^6.55
[5] = target: T1, 5-HT1A; assay: BRET signaling assay: 5-HT1A-mediated activation of heterotrimeric Gi1 (TRUPATH, HEK293-T); details: 5-HT1A WT

Structure (SMILES) | EC50 [1] | EC50 [2] | EC50 [3] | EC50 [4] | EC50 [5] | pEC50 [5]
COc1ccc2[nH]cc(CCN(C)C)c2c1 [Compound 8] | 3.67 nM |  |  |  |  | 
COc1ccc2[nH]cc(CCN(C)C)c2c1 [Compound 5-MeO-DMT, 5-methoxy-N,N-dimethyltryptamine, reference compound] |  | 3.49 nM | 38.2 nM | 197 nM | 25.6 nM | (7.59,
